Measured values as given in patent US10017462B1, “Antimicrobial poly(guanylurea)s” (THE FLORIDA INTERNATIONAL UNIVERSITY BOARD OF TRUSTEES, priority 2018, dated 2018).

System: human red blood cells (RBCs)

| Substance | HC50 [µg/mL] |
| --- | --- |
| Poly(guanylurea piperazine) [PGU-P-8K] | 394 |
| Poly(guanylurea piperazine) [PGU-P-3K] | >2000 |
| Poly(guanylurea piperazine) [PGU-P-14K] | 504 |
